Assay results as given in patent US7097988B1 (priority 1993, dated 2006).

Protein sequences, listed by entry. Tags and fused reporters are not part of them. Lines headed by an entry give the natural chain unless they say otherwise; changes in a name come on top.
UniProt P35370: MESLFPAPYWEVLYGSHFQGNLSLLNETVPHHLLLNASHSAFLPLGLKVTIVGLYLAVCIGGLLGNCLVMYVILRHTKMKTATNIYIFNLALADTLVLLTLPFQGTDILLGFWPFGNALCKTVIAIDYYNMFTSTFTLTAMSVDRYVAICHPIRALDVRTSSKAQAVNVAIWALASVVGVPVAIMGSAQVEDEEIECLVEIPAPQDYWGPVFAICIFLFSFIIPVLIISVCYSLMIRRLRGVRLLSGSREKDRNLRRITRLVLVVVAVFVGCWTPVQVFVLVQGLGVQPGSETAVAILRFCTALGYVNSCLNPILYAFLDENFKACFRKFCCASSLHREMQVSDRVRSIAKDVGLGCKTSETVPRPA
UniProt P35372, whole entry, looked up: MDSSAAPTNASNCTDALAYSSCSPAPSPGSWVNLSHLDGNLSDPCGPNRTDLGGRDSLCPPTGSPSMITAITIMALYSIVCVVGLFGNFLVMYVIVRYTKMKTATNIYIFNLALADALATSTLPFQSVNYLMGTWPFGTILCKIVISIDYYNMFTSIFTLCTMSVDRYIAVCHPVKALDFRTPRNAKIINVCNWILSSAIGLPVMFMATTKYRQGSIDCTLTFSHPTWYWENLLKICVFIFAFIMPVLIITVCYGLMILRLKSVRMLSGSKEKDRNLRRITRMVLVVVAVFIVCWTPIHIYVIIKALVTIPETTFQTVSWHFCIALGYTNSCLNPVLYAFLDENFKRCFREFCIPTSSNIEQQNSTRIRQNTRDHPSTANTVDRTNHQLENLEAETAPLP
UniProt P32300, whole entry, looked up: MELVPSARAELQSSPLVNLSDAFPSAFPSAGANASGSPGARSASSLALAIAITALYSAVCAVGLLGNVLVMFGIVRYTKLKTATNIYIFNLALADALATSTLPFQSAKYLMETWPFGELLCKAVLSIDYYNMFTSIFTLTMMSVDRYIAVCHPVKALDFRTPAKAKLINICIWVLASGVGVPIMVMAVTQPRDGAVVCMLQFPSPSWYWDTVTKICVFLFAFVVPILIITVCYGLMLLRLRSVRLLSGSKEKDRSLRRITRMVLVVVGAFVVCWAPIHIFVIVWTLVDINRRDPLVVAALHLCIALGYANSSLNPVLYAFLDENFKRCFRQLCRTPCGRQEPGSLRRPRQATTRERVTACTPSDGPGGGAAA

Legend:
[1] = target: T1, novel member of the opioid receptor gene family (SEQ ID NO: 17) (Rattus norvegicus, UniProt P35370); conditions: one micromolar agonist
[2] = target: T1, novel member of the opioid receptor gene family (SEQ ID NO: 17); test: [3H]diprenorphine binding, COS-7 membranes transfected with the putative (novel) opioid receptor; conditions: one nanomolar [3H]diprenorphine
human μ opioid receptor = human μ opioid receptor (Homo sapiens, UniProt P35372); conditions: saturation binding
mouse δ-opioid receptor = mouse δ-opioid receptor (Mus musculus, UniProt P32300); conditions: cited from earlier work

CN(C(=O)Cc1ccc(Cl)c(Cl)c1)[C@H]1CC[C@@]2(CCCO2)C[C@@H]1N1CCCC1
induction of potassium conductance (in words) [1]: no potassium conductance was induced

CO[C@]12CC[C@@]3(C[C@@H]1C(C)(C)O)[C@H]1Cc4ccc(O)c5c4[C@@]3(CCN1CC1CC1)[C@H]2O5
specific binding (in words) [2]: did not detect any specific binding | Bmax (human μ opioid receptor): 549±26 fmol/mg of membrane protein | Hill coefficients (human μ opioid receptor): 0.97±0.01 | Kd (mouse δ-opioid receptor): 3.8 nM
